Source: ChEMBL document CHEMBL3352468, “Synthesis and receptor binding in trans-CD ring-fused A-CD estrogens: comparison with the cis-fused isomers” (Bioorg Med Chem Lett, 2014)

Protein sequences, listed by entry. Tags and fused reporters are not part of them.
UniProt Q92731, whole entry: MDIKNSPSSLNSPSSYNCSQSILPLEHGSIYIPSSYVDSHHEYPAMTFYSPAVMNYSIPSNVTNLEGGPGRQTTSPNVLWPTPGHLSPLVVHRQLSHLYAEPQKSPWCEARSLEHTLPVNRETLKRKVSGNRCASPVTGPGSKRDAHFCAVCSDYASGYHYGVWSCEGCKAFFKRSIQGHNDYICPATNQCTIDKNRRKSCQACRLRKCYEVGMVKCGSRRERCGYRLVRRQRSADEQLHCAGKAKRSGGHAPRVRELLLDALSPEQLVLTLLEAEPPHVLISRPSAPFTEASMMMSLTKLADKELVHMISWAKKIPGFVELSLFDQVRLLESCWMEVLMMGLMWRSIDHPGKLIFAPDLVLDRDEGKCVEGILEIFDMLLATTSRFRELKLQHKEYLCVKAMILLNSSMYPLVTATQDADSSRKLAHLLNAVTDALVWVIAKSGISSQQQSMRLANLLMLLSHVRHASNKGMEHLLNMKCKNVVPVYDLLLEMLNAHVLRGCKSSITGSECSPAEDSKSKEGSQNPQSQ

Target: Estrogen receptor beta (Homo sapiens) (UniProt Q92731)
Experiment: Binding affinity to ERbeta (unknown origin) relative to estradiol

relative binding affinity (RBA): 205
SMILES: C[C@]12CC[C@H](c3ccc(O)cc3C(F)(F)F)C[C@H]1CC[C@@H]2O
